# Cyclic peptide permeability, from CycPeptMPDB

MDCK: transport across canine kidney epithelial cells.
Permeability is in 10^-6 cm/s, converted from the database's log10 values; higher is more permeable.

- CC(C)C[C@@H]1NC(=O)[C@H](C)N(C)C(=O)[C@H]2CCCN2C(=O)[C@H](CC(C)C)NC(=O)[C@H](C)N(C)C(=O)[C@H](CC(C)C)NC(=O)[C@H](C)N(C)C(=O)[C@H]2CCCN2C(=O)[C@H](CC(C)C)NC(=O)[C@H](C)N(C)C1=O: MDCK 6.5 × 10^-6 cm/s
- CC(C)C[C@@H]1NC(=O)[C@H](C)N(C)C(=O)[C@H](CC(C)C)NC(=O)[C@H](C)N(C)C(=O)[C@@H](C)N(C)C(=O)[C@H](CC(C)C)NC(=O)[C@H](C)N(C)C(=O)[C@H](CC(C)C)NC(=O)[C@H](C)N(C)C(=O)[C@@H](C)N(C)C1=O: MDCK 6.6 × 10^-6 cm/s
- CC(C)C[C@@H]1NC(=O)[C@H](CC(C)C)N(C)C(=O)[C@H](CC(C)C)NC(=O)[C@@H]2CCCN2C(=O)CN(C)C(=O)[C@H](CC(C)C)NC(=O)[C@H](CC(C)C)N(C)C(=O)[C@H](CC(C)C)NC(=O)[C@@H]2CCCN2C(=O)CN(C)C1=O: MDCK 19 × 10^-6 cm/s
- CC(C)C[C@@H]1NC(=O)[C@H](C)N(C)C(=O)[C@H](CC(C)C)NC(=O)[C@H](Cc2ccccc2)N(C)C(=O)[C@@H](CC(C)C)N(C)C(=O)[C@H](CC(C)C)NC(=O)[C@H](C)N(C)C(=O)[C@H](CC(C)C)NC(=O)[C@H](Cc2ccccc2)N(C)C(=O)[C@@H](CC(C)C)N(C)C1=O: MDCK 0.5 × 10^-6 cm/s
- C[C@@H]1NC(=O)[C@H](C)N(C)C(=O)[C@H](C)NC(=O)[C@H](C)N(C)C(=O)[C@@H](C)N(C)C(=O)[C@H](C)NC(=O)[C@H](C)N(C)C(=O)[C@H](C)NC(=O)[C@H](C)N(C)C(=O)[C@@H](C)N(C)C1=O: MDCK 0.76 × 10^-6 cm/s
- CC(C)C[C@@H]1NC(=O)[C@H](Cc2ccccc2)NC(=O)[C@H]2CCCN2C(=O)[C@H](CC(C)C)NC(=O)[C@H](C)NC(=O)[C@H](CC(C)C)NC(=O)[C@H](Cc2ccccc2)NC(=O)[C@H]2CCCN2C(=O)[C@H](CC(C)C)NC(=O)[C@H](C)NC1=O: MDCK 0.63 × 10^-6 cm/s
- CC(C)C[C@@H]1NC(=O)[C@H](C)N(C)C(=O)[C@H](CC(C)C)NC(=O)[C@@H]2CCCN2C(=O)[C@@H](Cc2ccccc2)N(C)C(=O)[C@H](CC(C)C)NC(=O)[C@H](C)N(C)C(=O)[C@H](CC(C)C)NC(=O)[C@@H]2CCCN2C(=O)[C@@H](Cc2ccccc2)N(C)C1=O: MDCK 1.5 × 10^-6 cm/s
- CC(C)C[C@@H]1NC(=O)[C@H](CC(C)C)N(C)C(=O)[C@H](CC(C)C)NC(=O)[C@H](C)N(C)C(=O)[C@@H](C)N(C)C(=O)[C@H](CC(C)C)NC(=O)[C@H](CC(C)C)N(C)C(=O)[C@H](CC(C)C)NC(=O)[C@H](C)N(C)C(=O)[C@@H](C)N(C)C1=O: MDCK 25 × 10^-6 cm/s
- CC(C)C[C@@H]1NC(=O)[C@H](C(C)C)N(C)C(=O)[C@H]2CCCN2C(=O)[C@H](CC(C)C)NC(=O)[C@H](C)N(C)C(=O)[C@H](CC(C)C)NC(=O)[C@H](C(C)C)N(C)C(=O)[C@H]2CCCN2C(=O)[C@H](CC(C)C)NC(=O)[C@H](C)N(C)C1=O: MDCK 6 × 10^-6 cm/s
- CC(C)C[C@@H]1NC(=O)[C@H](C)N(C)C(=O)[C@H](CC(C)C)NC(=O)[C@H](Cc2ccccc2)N(C)C(=O)[C@@H](C)N(C)C(=O)[C@H](CC(C)C)NC(=O)[C@H](C)N(C)C(=O)[C@H](CC(C)C)NC(=O)[C@H](Cc2ccccc2)N(C)C(=O)[C@@H](C)N(C)C1=O: MDCK 0.56 × 10^-6 cm/s
- C[C@@H]1NC(=O)[C@H](C)N(C)C(=O)[C@H](C)NC(=O)[C@@H]2CCCN2C(=O)CN(C)C(=O)[C@H](C)NC(=O)[C@H](C)N(C)C(=O)[C@H](C)NC(=O)[C@@H]2CCCN2C(=O)CN(C)C1=O: MDCK 0.68 × 10^-6 cm/s
- CC(C)C[C@@H]1NC(=O)[C@H](C)N(C)C(=O)[C@H](CC(C)C)NC(=O)[C@H](C)N(C)C(=O)[C@@H](Cc2ccccc2)N(C)C(=O)[C@H](CC(C)C)NC(=O)[C@H](C)N(C)C(=O)[C@H](CC(C)C)NC(=O)[C@H](C)N(C)C(=O)[C@@H](Cc2ccccc2)N(C)C1=O: MDCK 4.5 × 10^-6 cm/s
- CC(C)C[C@@H]1NC(=O)[C@H](C)N(C)C(=O)[C@H]2CCCN2C(=O)[C@H](CC(C)C)NC(=O)[C@H](Cc2ccccc2)N(C)C(=O)[C@H](CC(C)C)NC(=O)[C@H](C)N(C)C(=O)[C@H]2CCCN2C(=O)[C@H](CC(C)C)NC(=O)[C@H](Cc2ccccc2)N(C)C1=O: MDCK 2.2 × 10^-6 cm/s
- CC(C)C[C@@H]1NC(=O)[C@H](C)N(C)C(=O)[C@H](CC(C)C)NC(=O)[C@@H]2CCCN2C(=O)CN(C)C(=O)[C@H](CC(C)C)NC(=O)[C@H](C)N(C)C(=O)[C@H](CC(C)C)NC(=O)[C@@H]2CCCN2C(=O)CN(C)C1=O: MDCK 0.6 × 10^-6 cm/s

2 of these entries, quoted again:

compound	MDCK (10^-6 cm/s)
CC(C)C[C@@H]1NC(=O)[C@H](Cc2ccccc2)NC(=O)[C@H]2CCCN2C(=O)[C@H](CC(C)C)NC(=O)[C@H](C)NC(=O)[C@H](CC(C)C)NC(=O)[C@H](Cc2ccccc2)NC(=O)[C@H]2CCCN2C(=O)[C@H](CC(C)C)NC(=O)[C@H](C)NC1=O	0.63
CC(C)C[C@@H]1NC(=O)[C@H](C)N(C)C(=O)[C@H]2CCCN2C(=O)[C@H](CC(C)C)NC(=O)[C@H](C)N(C)C(=O)[C@H](CC(C)C)NC(=O)[C@H](C)N(C)C(=O)[C@H]2CCCN2C(=O)[C@H](CC(C)C)NC(=O)[C@H](C)N(C)C1=O	6.5

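The data file gives no further conditions (lipid, pH, time, direction or concentration), and values from different papers need not be comparable. The list need not hold all peptides of the study. Peptides that the database sets to -10, its floor, are left out.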

Values of Fouché et al. 2016, doi:10.1002/cmdc.201600082, as listed in CycPeptMPDB.